Values quoted from earlier work as cited in patent US12144788B2, “Visual cycle modulators” (CASE WESTERN RESERVE UNIVERSITY, priority 2017, dated 2024).

Chains of the proteins cited; added tags and fusions are not shown. Lines headed by an entry give the natural chain unless they say otherwise; changes in a name come on top.
UniProt Q28175: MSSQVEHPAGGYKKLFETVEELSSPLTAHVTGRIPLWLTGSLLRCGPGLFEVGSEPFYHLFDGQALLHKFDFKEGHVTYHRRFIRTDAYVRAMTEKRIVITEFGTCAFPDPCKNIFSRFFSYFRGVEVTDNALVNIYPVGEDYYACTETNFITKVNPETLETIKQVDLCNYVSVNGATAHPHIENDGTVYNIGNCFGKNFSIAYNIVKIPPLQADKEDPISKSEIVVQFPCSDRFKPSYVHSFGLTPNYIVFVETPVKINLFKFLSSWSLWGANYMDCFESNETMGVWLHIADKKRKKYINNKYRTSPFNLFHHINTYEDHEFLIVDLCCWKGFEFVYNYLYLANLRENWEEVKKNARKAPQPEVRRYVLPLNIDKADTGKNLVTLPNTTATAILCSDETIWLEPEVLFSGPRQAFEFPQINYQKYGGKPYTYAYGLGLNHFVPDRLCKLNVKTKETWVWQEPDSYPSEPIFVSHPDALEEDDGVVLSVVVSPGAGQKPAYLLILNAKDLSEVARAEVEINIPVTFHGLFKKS

Target: RPE65 (Bos taurus, UniProt Q28175)
Conditions: previously reported; cited from earlier work

Structure (SMILES): NCC[C@@H](O)c1cccc(OCC2CCCCC2)c1
- times more potent than the S-isomer: ~1.6 times
